## Membrane permeability of cyclic peptides

Data: CycPeptMPDB; original report Townsend et al. 2020, doi:10.26434/chemrxiv.13335941.v1.

PAMPA is the parallel artificial membrane permeability assay, which has no cells and reads passive diffusion.
Permeability is given as log10 of P in cm/s; higher (less negative) is more permeable.

The entry for CCCN1CC(=O)N(C)[C@H](CC(C)C)C(=O)N(C)[C@H](CC(C)C)C(=O)N2CCC[C@@H]2C(=O)N(C)[C@@H](CC(C)C)C(=O)N[C@@H](Cc2ccccc2)C(=O)N2CCC[C@@H]2C1=O lists PAMPA -4.84 (log10 cm/s). Listed for CC(C)C[C@H]1NC(=O)[C@H](C)N(C)C(=O)[C@H](Cc2ccccc2)NC(=O)CN(Cc2ccccc2)C(=O)[C@H]2CCCN2C(=O)[C@@H](CC(C)C)NC1=O: PAMPA -6.02 (log10 cm/s). CCCN1CC(=O)N(C)[C@H](CC(C)C)C(=O)N[C@@H](Cc2ccccc2)CC(=O)N2CCC[C@@H]2C(=O)N(C)[C@H](CC(C)C)C(=O)N[C@@H](Cc2ccccc2)C(=O)N2CCC[C@H]2C1=O has PAMPA -5.63 (log10 cm/s). CC(C)C[C@@H]1NC(=O)[C@@H]2CCCN2C(=O)CN(Cc2ccccc2)C(=O)[C@H](CC(C)C)NC(=O)[C@H](C)NC(=O)[C@H]2CCCN2C(=O)[C@H](Cc2ccccc2)NC1=O has PAMPA -6.17 (log10 cm/s). The entry for CCCN1CC(=O)N(C)[C@H](CC(C)C)C(=O)N[C@@H](CC(C)C)C(=O)N2CCC[C@H]2C(=O)N(C)[C@@H](CC(C)C)C(=O)N[C@@H](Cc2ccccc2)C1=O lists PAMPA -4.74 (log10 cm/s). CC(C)C[C@@H]1NC(=O)CN(Cc2ccccc2)C(=O)C[C@H](Cc2ccccc2)NC(=O)[C@H]2CCCN2C(=O)[C@H](Cc2ccccc2)NC(=O)[C@@H](CC(C)C)N(C)C(=O)[C@@H]2CCCN2C1=O is reported with PAMPA -5.42 (log10 cm/s).

For CCCN1CC(=O)N(C)[C@@H](CC(C)C)C(=O)N(C)[C@@H](CC(C)C)C(=O)N2CCC[C@@H]2C(=O)N(Cc2ccccc2)CC(=O)N[C@@H](Cc2ccccc2)C(=O)N2CCC[C@@H]2C1=O the data give PAMPA -6.32 (log10 cm/s). Listed for CC(C)C[C@@H]1NC(=O)[C@H](C)NC(=O)[C@H]2CCCN2C(=O)[C@H](Cc2ccccc2)NC(=O)CN(Cc2ccccc2)C(=O)[C@@H]2CCCN2C(=O)[C@@H](CC(C)C)NC1=O: PAMPA -6.39 (log10 cm/s). CC(C)C[C@@H]1NC(=O)[C@H](C)N(C)C(=O)[C@H]2CCCN2C(=O)[C@H](Cc2ccccc2)NC(=O)[C@@H](CC(C)C)NC(=O)[C@H]2CCCN2C(=O)C[C@H](Cc2ccccc2)NC1=O is reported with PAMPA -6.26 (log10 cm/s). CC(C)C[C@@H]1NC(=O)[C@@H](CC(C)C)N(C)C(=O)C[C@H](Cc2ccccc2)NC(=O)[C@H]2CCCN2C(=O)[C@H](Cc2ccccc2)NC(=O)[C@H](CC(C)C)N(C)C(=O)[C@H]2CCCN2C1=O is reported with PAMPA -5.46 (log10 cm/s). CC(C)C[C@@H]1C(=O)N[C@@H](Cc2ccccc2)C(=O)N2CCC[C@@H]2C(=O)N(C)[C@@H](C)C(=O)N(Cc2ccccc2)CC(=O)N[C@@H](Cc2ccccc2)CC(=O)N2CCC[C@@H]2C(=O)N1C is reported with PAMPA -5.84 (log10 cm/s). For CC(C)C[C@@H]1NC(=O)[C@H]2CCCN2C(=O)CN(Cc2ccccc2)C(=O)[C@H](CC(C)C)N(C)C(=O)[C@@H](C)N(C)C(=O)[C@@H]2CCCN2C(=O)[C@H](Cc2ccccc2)NC1=O the data give PAMPA -6.53 (log10 cm/s).

Listed for CC(C)C[C@@H]1C(=O)N[C@@H](Cc2ccccc2)C(=O)N2CCC[C@@H]2C(=O)N(C)[C@@H](C)C(=O)N(C)[C@H](CC(C)C)C(=O)N[C@H](CC(C)C)C(=O)N2CCC[C@@H]2C(=O)N1C: PAMPA -5.55 (log10 cm/s). CC(C)C[C@@H]1NC(=O)[C@H](C)N(C)C(=O)[C@H](Cc2ccccc2)NC(=O)[C@@H](CC(C)C)N(C)C(=O)[C@@H]2CCCN2C(=O)[C@@H](CC(C)C)NC1=O has PAMPA -5.07 (log10 cm/s). CC(C)C[C@@H]1NC(=O)C[C@H](Cc2ccccc2)NC(=O)[C@H](Cc2ccccc2)NC(=O)CN(Cc2ccccc2)C(=O)[C@@H]2CCCN2C(=O)[C@@H](CC(C)C)NC1=O is reported with PAMPA -5.57 (log10 cm/s). For CC(C)C[C@@H]1NC(=O)[C@@H](C)NC(=O)[C@H](Cc2ccccc2)NC(=O)[C@@H](CC(C)C)N(C)C(=O)[C@H]2CCCN2C(=O)[C@@H](CC(C)C)NC1=O the data give PAMPA -5.85 (log10 cm/s). CCCN1CC(=O)N(C)[C@@H](CC(C)C)C(=O)N[C@H](CC(C)C)C(=O)N2CCC[C@H]2C(=O)N[C@@H](CC(C)C)C(=O)N[C@@H](Cc2ccccc2)C(=O)N2CCC[C@@H]2C1=O has PAMPA -6.69 (log10 cm/s). CC(C)C[C@@H]1NC(=O)[C@@H]2CCCN2C(=O)[C@@H](CC(C)C)NC(=O)[C@@H](CC(C)C)NC(=O)C[C@H](Cc2ccccc2)NC(=O)[C@H]2CCCN2C(=O)[C@H](Cc2ccccc2)NC1=O is reported with PAMPA -5.79 (log10 cm/s).

The 3 highest values of PAMPA among the entries above:

SMILES	PAMPA (log10 cm/s)
CCCN1CC(=O)N(C)[C@H](CC(C)C)C(=O)N[C@@H](CC(C)C)C(=O)N2CCC[C@H]2C(=O)N(C)[C@@H](CC(C)C)C(=O)N[C@@H](Cc2ccccc2)C1=O	-4.74
CCCN1CC(=O)N(C)[C@H](CC(C)C)C(=O)N(C)[C@H](CC(C)C)C(=O)N2CCC[C@@H]2C(=O)N(C)[C@@H](CC(C)C)C(=O)N[C@@H](Cc2ccccc2)C(=O)N2CCC[C@@H]2C1=O	-4.84
CC(C)C[C@@H]1NC(=O)[C@H](C)N(C)C(=O)[C@H](Cc2ccccc2)NC(=O)[C@@H](CC(C)C)N(C)C(=O)[C@@H]2CCCN2C(=O)[C@@H](CC(C)C)NC1=O	-5.07

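Conditions beyond the assay type are not listed; see the original paper. The list need not hold all peptides of the study. Entries at the database's floor value (log10 P of -10) are not listed.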